## AlphaSeq binding of Ab-14 light chain variants to a spike HR2 peptide

Data: MIT Lincoln Laboratory AlphaSeq set, Engelhart et al. 2022, doi:10.1038/s41597-022-01779-4, as distributed in FLAb.

Antigen: PDVDLGDISGINAS, a 14-residue peptide of the SARS-CoV-2 spike HR2 region.

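The parent was found by panning a naive human phage display library on the peptide. AAYL50 was designed without a model: most single CDR substitutions and a random sample of double and triple ones. In AlphaSeq, yeast of one mating type display the scFv and yeast of the other type display the target. Pairs that bind mate more often; barcode pairs of the diploids are counted by sequencing. The ratio of observed to expected reads was calibrated, replicate by replicate, on BCL2-family standards whose Kd was known from biolayer interferometry. Mating was done three times.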

Each scFv is VH, the linker GGGGSGGGGSGGGGS, VL, as in the parent Ab-14, and differs from it in the CDRs of the light chain only.
VH: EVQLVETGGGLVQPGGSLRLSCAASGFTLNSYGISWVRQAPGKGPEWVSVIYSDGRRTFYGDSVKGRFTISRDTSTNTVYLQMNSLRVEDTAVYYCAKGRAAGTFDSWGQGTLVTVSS
VL: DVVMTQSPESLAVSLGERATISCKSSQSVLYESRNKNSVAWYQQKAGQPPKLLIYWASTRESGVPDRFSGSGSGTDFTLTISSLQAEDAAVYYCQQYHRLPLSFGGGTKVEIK

The parent's light chain CDRs are KSSQSVLYESRNKNSVA, WASTRES, QQYHRLPLS; each variant's own CDRs replace them letter for letter. Numbers give log10(Kd / nM), so 0 is 1 nM and 3 is 1 µM. Smaller is tighter. Averages over replicates are reported, and they cover detected replicates only. "nd" marks a missing value. The strain was present, yet no cells mated with the target were sequenced in that replicate, which points to weak or no binding.

| # | CDR-L1 | CDR-L2 | CDR-L3 | replicates, log10 nM | mean, log10 nM | signal with controls |
|---|---|---|---|---|---|---|
| 1 | KQSQSVLYESRNDNSVA | WASTRES | QQYCRLPLS | 0.61 0.84 0.72 | 0.72 | 1/9 (2.93) |
| 2 | KSSQSVLYPSRNKNSVA | WASTRES | QQYHRMPLS | 1.16 1.18 1.33 | 1.22 | 0/9 |
| 3 | KSSQSVLYESRNKNSSA | WASWNES | QQYHRLPLS | 4.50 nd nd | 4.50 | 1/9 (2.46) |
| 4 | KSSQSPLGESRNKNSVA | WASTRES | QQCHRLPLS | 0.39 0.53 0.71 | 0.54 | 1/9 (4.56) |
| 5 | KSSQSVRYESRNKNSVA | WASTRES | QDYHRLPLS | 0.59 0.81 0.71 | 0.70 | 1/9 (4.99) |
| 6 | KSSKSVLYESRNKNSVW | WAFTRES | QQYHRLPLS | 5.85 5.43 nd | 5.64 | 7/9 (4.97) |
| 7 | KSSQSQLYESRNKNSVA | WAVTRES | QQTHRLPLS | 1.93 2.10 1.81 | 1.95 | 1/9 (2.22) |
| 8 | KSSQSVLYESRNKNRVA | WAFTRES | QQCHRLPLS | nd nd 4.10 | 4.10 | 4/9 (3.95) |
| 9 | DSSQSVLYESRNRNSVA | WASTRES | KQYHRLPLS | nd nd 4.44 | 4.44 | 0/9 |
| 10 | KSSQSVLYMSRNKNSVA | WAMTRES | QQYARLPLS | nd 2.97 2.80 | 2.88 | 0/9 |
| 11 | KSSQSMLYESRNKNSCA | WASPRES | QQYHRLPLS | nd 4.27 nd | 4.27 | 1/9 (4.24) |
| 12 | KSWQSVLYYSRNKNSVA | WASTRES | QQYHPLPLS | nd nd nd | nd | 2/9 (3.84) |
| 13 | KSSQSVLYESRNKNFEA | WWSTRES | QQYHRLPLS | nd 3.90 nd | 3.90 | 0/9 |
| 14 | MSSQSVLYESRNKNSVA | WASTRES | QWYPRLPLS | nd nd nd | nd | 1/9 (3.38) |
| 15 | KSSQSVLYESRVKNSVA | WASTREP | QYYHRLPLS | 2.37 2.58 2.84 | 2.60 | 3/9 (3.68) |
| 16 | KFSQEVLYESRNKNSVA | WASTRES | QQYHYLPLS | -0.09 0.27 0.14 | 0.11 | 3/9 (3.96) |
| 17 | KSSQGVLRESRNKNSVA | WASTRES | QQYHRLPLC | 3.05 2.77 2.85 | 2.89 | 5/9 (5.26) |
| 18 | KSSQSVLMESRNKKSVA | WASTRES | QQYHRLPLM | 1.71 1.63 1.94 | 1.76 | 2/9 (4.12) |
| 19 | KSSQSVLYESRNKNSVA | WASTRES | EQTHRTPLS | nd nd 5.42 | 5.42 | 0/9 |
| 20 | KSSQSGLWESRNKNSVA | WKSTRES | QQYHRLPLS | 1.11 1.48 1.46 | 1.35 | 0/9 |
| 21 | KSSQSVLYESTNKNSVA | WASTRES | QQYHRLPLS | 0.22 0.45 0.30 | 0.32 | 1/9 (4.38) |
| 22 | KSSQSVLYESGNKNSVA | WASHSES | QQYHRLPLS | 2.76 2.81 2.96 | 2.84 | 1/9 (3.75) |
| 23 | VSSQSVLYESRNKNSVA | CASTYES | QQYHRLPLS | nd nd nd | nd | 0/9 |
| 24 | KSSQSVLYESRNKNSVA | WASTRES | QQYHRLFLS | nd nd 3.80 | 3.80 | 0/9 |
| 25 | KSSQSVLYESRNKNSVA | WASTIES | QQQHFLPLS | 4.55 4.17 nd | 4.36 | 4/9 (4.71) |
| 26 | KYSQSVLYETRNKNSVA | WASTRES | QQYHRLPLS | 0.96 1.07 1.01 | 1.01 | 3/9 (4.41) |
| 27 | KSSQSVLYESRQMNSVA | WASTRES | QEYHRLPLS | 1.90 2.27 1.96 | 2.04 | 0/9 |
| 28 | KSSQSVLYESRNENSDA | WASTRES | QQYHRLPLS | nd 3.79 nd | 3.79 | 2/9 (3.39) |
| 29 | KSSQSVIYESRNKNSVA | WASTRES | QQVHRLPWS | 0.67 1.00 0.95 | 0.87 | 4/9 (4.33) |
| 30 | KSSQSVEYESRNKNSVA | WASTKES | QQYHRLKLS | 3.83 nd nd | 3.83 | 0/9 |
| 31 | KESQSVLYESRNKNSVA | WISTRES | QQYHRLPLS | 3.44 3.45 3.87 | 3.59 | 2/9 (4.19) |
| 32 | KSSQSVLYESRNKNSVA | WASTRES | IQYHWVPLS | 1.04 1.12 1.06 | 1.07 | 1/9 (4.94) |
| 33 | KSSQSVLYVSRNKNSAA | WGSTRES | QQYHRLPLS | nd 3.81 nd | 3.81 | 3/9 (4.70) |
| 34 | KSSWSVLYEFRNKNSVA | WASTAES | QQYHRLPLS | nd 2.83 nd | 2.83 | 0/9 |
| 35 | KGSQSVLYESRNKNSVA | WASLREN | QQYHRLPLS | 0.85 1.01 1.31 | 1.06 | 3/9 (4.34) |
| 36 | HQSQSVLYESRNKNSVA | WYSTRES | QQYHRLPLS | nd nd nd | nd | 1/9 (3.38) |
| 37 | KISQSCLYESRTKNSVA | WASTRES | QQYHRLPLS | nd nd nd | nd | 0/9 |
| 38 | KYSQSVLYESRNKNVVA | WASTRES | QQYHRLILS | nd nd nd | nd | 1/9 (4.72) |
| 39 | KSSYSVLYESRLKNSVA | WASTRES | QQYHRLPLS | 1.43 1.52 1.43 | 1.46 | 2/9 (3.97) |
| 40 | KSSQSPLYESRDKNSDA | WASTRES | QQYHRLPLS | nd 4.54 nd | 4.54 | 4/9 (4.54) |
| 41 | KSSQSVLYASRNKNSVA | WASTRES | QQYHRLSKS | nd 3.99 4.12 | 4.05 | 3/9 (4.27) |
| 42 | KIIQSVLYESRNKNDVA | WASTRES | QQYHRLPLS | nd 2.64 2.86 | 2.75 | 1/9 (2.39) |
| 43 | KFSQSVLYESRNKASVA | WASTRES | QQYHRLPSS | 1.00 1.24 1.12 | 1.12 | 5/9 (5.02) |
| 44 | KSSQSQLYESRNKSSVA | WASTRES | QQYHRLCLS | 1.88 2.10 2.52 | 2.17 | 0/9 |
| 45 | KSSQSVLYESRNKNSVA | WASIRES | IQYHRLPLS | 1.15 1.24 1.15 | 1.18 | 1/9 (3.92) |
| 46 | KSSQSVLCESRNKNSVA | WQSTRES | QQYHRLPLE | 5.51 nd nd | 5.51 | 2/9 (4.23) |

Top 2 of the variants detected in all replicates, tightest first:

| CDR-L1 | CDR-L2 | CDR-L3 | replicates, log10 nM | mean, log10 nM | signal with controls |
|---|---|---|---|---|---|
| KFSQEVLYESRNKNSVA | WASTRES | QQYHYLPLS | -0.09 0.27 0.14 | 0.11 | 3/9 (3.96) |
| KSSQSVLYESTNKNSVA | WASTRES | QQYHRLPLS | 0.22 0.45 0.30 | 0.32 | 1/9 (4.38) |

Three control strains display no target. For library AAYL50, 18% of the pairings with them gave a signal, with a median of 4.19 and one signal in twenty below 2.99, so weak values seen in few replicates may be background. For each scFv, signals with the empty controls are counted beside the result, with their mean in brackets. Parent in this assay: reference entry 0.65, copy in this library 1.68.